Assay results from ChEMBL document CHEMBL1148372 (J Med Chem, 2004).
pEC50: −log10 of the molar value.

The chains behind the UniProt entries cited, without tags or fusion partners.
UniProt P61169, whole entry: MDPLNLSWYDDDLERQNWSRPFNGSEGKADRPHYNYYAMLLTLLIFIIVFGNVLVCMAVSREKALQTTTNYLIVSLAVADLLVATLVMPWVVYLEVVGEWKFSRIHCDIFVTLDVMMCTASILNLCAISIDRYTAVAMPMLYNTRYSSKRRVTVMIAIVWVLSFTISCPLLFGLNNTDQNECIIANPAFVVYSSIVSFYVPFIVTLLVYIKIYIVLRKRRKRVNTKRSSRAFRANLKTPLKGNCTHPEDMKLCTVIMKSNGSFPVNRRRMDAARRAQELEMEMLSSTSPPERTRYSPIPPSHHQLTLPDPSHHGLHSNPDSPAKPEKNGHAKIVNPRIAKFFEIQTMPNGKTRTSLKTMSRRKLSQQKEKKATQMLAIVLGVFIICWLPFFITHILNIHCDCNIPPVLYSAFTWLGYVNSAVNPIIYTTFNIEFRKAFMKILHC

Biological target: D(2) dopamine receptor (Rattus norvegicus, UniProt P61169)
Assay: In vitro effective concentration tested on HEK293 cells co-transfected with rat Dopamine receptor D2 using FLIPR assay
Assay type: cell-based

CN1CCc2cccc3c2[C@H]1Cc1ccc(O)c(O)c1-3 [APOMORPHINE]
pEC50: 9.40
